Test results from PubChem BioAssay (NCI).
Only a part is listed here, and it is no random draw. Activity calls are given as the source filed them. No stated cut-off is given here; in the data, active means growth inhibition above about 70%; inactive means the rest.

Tests used:
[1] = NCI Yeast Anticancer Drug Screen. Data for the rad50 strain (AID 155);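 further: 0% = growth of vehicle-only cultures of the same strain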; details: S. cerevisiae rad50 strain growth inhibition; at 50.0 µM; active compounds read high
[2] = NCI Yeast Anticancer Drug Screen. Data for the mec2-1 strain (AID 157); details: S. cerevisiae mec2-1 strain, at 50.0 µM, active compounds read high
[3] = NCI Yeast Anticancer Drug Screen. Data for the sgs1 mgt1 strain (AID 161);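 further: 0% = growth of cultures given vehicle only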; details: S. cerevisiae sgs1 mgt1 strain, at 50.0 µM, active compounds read high
[4] = NCI Yeast Anticancer Drug Screen. Data for the cln2 rad14 strain (AID 165);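 further: 0% = growth equal to vehicle treated cultures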; details: S. cerevisiae cln2 rad14 strain, at 50.0 µM, active compounds read high
[5] = NCI Yeast Anticancer Drug Screen. Data for the bub3 strain (AID 167); details: S. cerevisiae bub3 mutant strain, at 50.0 µM, active compounds read high
[6] = NCI Yeast Anticancer Drug Screen. Data for the mlh1 rad18 strain (AID 175); details: S. cerevisiae mlh1 rad18 strain growth inhibition; at 50.0 µM; active compounds read high

Measured: growth inhibition

O=C(O)C(CCSSCCC(Nc1ccc([N+](=O)[O-])cc1[N+](=O)[O-])C(=O)O)Nc1ccc([N+](=O)[O-])cc1[N+](=O)[O-] (centres undefined)
inactive: [1] 52.4% | [2] 26.8% | [3] 48% | [4] 26.7% | [5] 4.7% | [6] 46.5%

CN1C(=O)CC(C(=O)OC2CN3CCC2CC3)CC1=O (centres undefined)
inactive: [1] -14.2% | [2] -4.65% | [3] -10.3% | [4] -16.9% | [5] -0.3% | [6] 4.35%

O=[N+]([O-])c1ccc(C[As](=O)(O)O)cc1
inactive: [1] 11.3% | [2] 15.8% | [3] 5.7% | [4] -24.1% | [5] -14.1% | [6] 5.7%

CCC(=O)C(CCN(C)C)(c1ccccc1)c1ccccc1
inactive: [1] -5.1% | [2] 17.8% | [3] 4.65% | [4] -5.6% | [5] -0.9% | [6] 34.6%
